# Measurements published in patent US7217810B2, “High level production of arbutin in green plants and microbes” (E. I. du Pont de Nemours and Company, priority 2003, dated 2007).
# Target: T1, UGT72B1 (Arabidopsis thaliana, UniProt Q9M156)
# T1 sequence (Q9M156 1-480): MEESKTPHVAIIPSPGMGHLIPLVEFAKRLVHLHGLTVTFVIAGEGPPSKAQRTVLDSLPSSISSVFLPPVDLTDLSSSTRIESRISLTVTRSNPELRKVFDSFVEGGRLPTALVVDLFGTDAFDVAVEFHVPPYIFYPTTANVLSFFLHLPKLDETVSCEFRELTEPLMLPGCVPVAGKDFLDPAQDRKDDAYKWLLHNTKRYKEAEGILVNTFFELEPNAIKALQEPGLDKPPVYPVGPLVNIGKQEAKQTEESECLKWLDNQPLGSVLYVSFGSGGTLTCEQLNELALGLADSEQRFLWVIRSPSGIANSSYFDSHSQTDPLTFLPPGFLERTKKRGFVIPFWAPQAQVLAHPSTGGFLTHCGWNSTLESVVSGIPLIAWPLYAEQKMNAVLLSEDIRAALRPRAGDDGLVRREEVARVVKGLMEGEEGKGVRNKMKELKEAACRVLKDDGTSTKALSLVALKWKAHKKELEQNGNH
# Settings: 30° C., translated from cited specific activity
smiles,measurement,value
"O=C(O)c1cc(O)ccc1O [2,5-dihydroxybenzoic acid]",turnover number,~0.6 s⁻¹
